Experimental data from ChEMBL document CHEMBL1134928, “Synthesis and evaluation of potent pyrrolidine H(3) antagonists” (Bioorg Med Chem Lett, 2002).

By UniProt entry, the sequences of proteins in these tests, tags left out. Where a name states a change or a piece, a line headed by the entry shows the natural chain unless it says otherwise.
UniProt Q9QYN8: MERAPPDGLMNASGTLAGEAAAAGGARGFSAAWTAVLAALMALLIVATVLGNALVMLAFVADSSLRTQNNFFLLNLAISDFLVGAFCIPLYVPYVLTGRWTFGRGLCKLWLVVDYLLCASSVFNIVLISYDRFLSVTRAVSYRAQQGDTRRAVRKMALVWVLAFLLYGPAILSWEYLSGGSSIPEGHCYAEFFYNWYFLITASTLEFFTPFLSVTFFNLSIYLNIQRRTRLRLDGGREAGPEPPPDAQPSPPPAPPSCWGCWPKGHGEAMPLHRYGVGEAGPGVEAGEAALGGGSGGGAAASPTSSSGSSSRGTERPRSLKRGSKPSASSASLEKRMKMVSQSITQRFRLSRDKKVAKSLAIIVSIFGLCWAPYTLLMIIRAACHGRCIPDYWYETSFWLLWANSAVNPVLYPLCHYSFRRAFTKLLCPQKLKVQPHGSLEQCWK

Target: Histamine H3 receptor (Rattus norvegicus, UniProt Q9QYN8)
Assay: Binding affinity against rat histamine H3 receptor

Q: With `O=C(c1ccc(OCCCN2CC[C@H](NS(=O)(=O)c3ccccc3Cl)C2)cc1)C1CC1` as the compound, how does the Ki read?
A: Its Ki is 3.7 nM.
